The values that follow come from patent US12098214B2, “Combination therapies for treating cancer” (ALX Oncology Inc., priority 2021, dated 2024).

The assay deals with MC38 m/h HER2 tumors. The assay can be described thus: MC38 m/h HER2 colon tumor model in mice. It counts as in vivo, mouse. Particulars: C57BL/6 mice, IP; DRUG A 30 mg/kg 2q10d, anti-PD-L1 antibody 1 mg/kg 3q5d, trastuzumab 30 mg/kg 3q5d; FIG. 1. The text has this: MC38 mouse/human HER2-expressing cells (“MC38 m/h HER2 cells”) were generated by infecting MC38 murine colon adenocarcinoma cells with a lentivirus vector encoding a chimera of mouse and human HER2 transmembrane and extracellular domains.
Prior to implantation, a master cell bank of each cell line was generated to assure that cells used in subsequent experiments were of the same passage number. […] When tumor size reached an average of 65-69 mm^3 for MC38 m/h HER2 tumors, the animals were randomized into 8 groups of 10 mice. Each group was assigned to a treatment group outlined in Table A below.
Tumor volumes and body weights were recorded two or three times per week. […] Statistical analysis and p values were calculated using GraphPad Prism Software.

As for trastuzumab: anti-HER2 antibody, the “effect on tumor growth / tumor growth inhibition” value is on record as “no effect on tumor growth”.
